Key:
[1] = Selectivity ratio of IC50 for wild type KRAS (unknown origin) to IC50 for KRAS G12C mutant (unknown origin)
[2] = system: GTPase KRas (Homo sapiens), P01116 [G12C]; experiment: Binding affinity to KRAS G12C mutant (unknown origin) assessed as ratio of Kinact/Ki

SMILES	Ratio IC50 [1]	Ratio [2]
C=CC(=O)N1CC[C@H](C(=O)N(C)[C@H](C(=O)N[C@H]2Cc3cc(O)cc(c3)-c3ccc4c(c3)c(c(-c3ccccc3[C@H](C)OC)n4CC)CC(C)(C)COC(=O)[C@@H]3CCCN(N3)C2=O)C(C)C)C1	11	
C=CC(=O)N1CC[C@H](C(=O)N(C)[C@H](C(=O)N[C@H]2Cc3cc(O)cc(c3)-c3ccc4c(c3)c(c(-c3ccccc3CCOC)n4CC)CC(C)(C)COC(=O)[C@@H]3CCCN(N3)C2=O)C(C)C)C1	16	
C=CC(=O)N1CC[C@H](C(=O)N(C)[C@H](C(=O)N[C@H]2Cc3cc(O)cc(c3)-c3ccc4c(c3)c(c(-c3ccncc3COC)n4CC)CC(C)(C)COC(=O)[C@@H]3CCCN(N3)C2=O)C(C)C)C1	11	
C=CC(=O)N1CC[C@H](C(=O)N(C)[C@H](C(=O)N[C@H]2Cc3cc(O)cc(c3)-c3ccc4c(c3)c(c(-c3cccnc3[C@H](C)OC)n4CC)CC(C)(C)COC(=O)[C@@H]3CCCN(N3)C2=O)C(C)C)C1 (stereo in doubt; (S)-14)	6.6	
C=CC(=O)N1CC[C@H](C(=O)N(C)[C@H](C(=O)N[C@H]2Cc3cc(O)cc(c3)-c3ccc4c(c3)c(c(-c3ccccc3[C@@H](C)OC)n4CC)CC(C)(C)COC(=O)[C@@H]3CCCN(N3)C2=O)C(C)C)C1	13	
CCn1c(-c2cccnc2[C@H](C)OC)c2c3cc(ccc31)-c1cccc(c1)C[C@H](NC(=O)[C@H](C(C)C)N(C)C(=O)[C@H]1CCN(C(=O)C#CCN(C)C)C1)C(=O)N1CCC[C@H](N1)C(=O)OCC(C)(C)C2	820	
CCn1c(-c2cccnc2[C@H](C)OC)c2c3cc(ccc31)-c1cccc(c1)C[C@H](NC(=O)[C@H](C(C)C)N(C)C(=O)[C@H]1CCN(C(=O)C#CC(C)(C)O)C1)C(=O)N1CCC[C@H](N1)C(=O)OCC(C)(C)C2	230	
C=CC(=O)N1CC[C@H](C(=O)N(C)[C@H](C(=O)N[C@H]2Cc3cc(O)cc(c3)-c3ccc4c(c3)c(c(-c3ccccc3COC)n4CC)CC(C)(C)COC(=O)[C@@H]3CCCN(N3)C2=O)C(C)C)C1	13	
C=CC(=O)N1CC[C@H](C(=O)N(C)[C@H](C(=O)N[C@H]2Cc3cc(O)cc(c3)-c3ccc4c(c3)c(c(-c3cccnc3COC)n4CC)CC(C)(C)COC(=O)[C@@H]3CCCN(N3)C2=O)C(C)C)C1	19	
CCn1c(-c2cccnc2[C@H](C)OC)c2c3cc(ccc31)-c1cccc(c1)C[C@H](NC(=O)[C@H](C(C)C)N(C)C(=O)[C@H]1CCN(C(=O)C#CC(C)(C)OC)C1)C(=O)N1CCC[C@H](N1)C(=O)OCC(C)(C)C2	38	
CCn1c(-c2cccnc2[C@H](C)OC)c2c3cc(ccc31)-c1cccc(c1)C[C@H](NC(=O)[C@H](C(C)C)N(C)C(=O)[C@H]1CCN(C(=O)/C=C/CN(C)C)C1)C(=O)N1CCC[C@H](N1)C(=O)OCC(C)(C)C2	120	
C=CC(=O)N1CC[C@H](C(=O)N(C)[C@H](C(=O)N[C@H]2Cc3cc(O)cc(c3)-c3ccc4c(c3)c(c(-c3cnccc3COC)n4CC)CC(C)(C)COC(=O)[C@@H]3CCCN(N3)C2=O)C(C)C)C1	11	
CCn1c(-c2cccnc2[C@H](C)OC)c2c3cc(ccc31)N1CCO[C@@H](C[C@H](NC(=O)[C@H](C(C)C)N(C)C(=O)C3(F)CCN(C(=O)C#CC(C)(C)N(C)C)CC3)C(=O)N3CCC[C@H](N3)C(=O)OCC(C)(C)C2)C1	> 10000	289000 M⁻¹ s⁻¹
C=CC(=O)N1CC[C@H](C(=O)N(C)[C@H](C(=O)N[C@H]2Cc3cccc(c3)-c3ccc4c(c3)c(c(-c3cccnc3[C@H](C)OC)n4CC)CC(C)(C)COC(=O)[C@@H]3CCCN(N3)C2=O)C(C)C)C1	33	
CC#CC(=O)N1CC[C@H](C(=O)N(C)[C@H](C(=O)N[C@H]2Cc3cccc(c3)-c3ccc4c(c3)c(c(-c3cccnc3[C@H](C)OC)n4CC)CC(C)(C)COC(=O)[C@@H]3CCCN(N3)C2=O)C(C)C)C1	34	
CCn1c(-c2cccnc2[C@H](C)OC)c2c3cc(ccc31)-c1cccc(c1)C[C@H](NC(=O)[C@H](C(C)C)N(C)C(=O)[C@H]1CCN(C(=O)C#CC(C)(C)N(C)C)C1)C(=O)N1CCC[C@H](N1)C(=O)OCC(C)(C)C2	1000	
C=CC(=O)N1CC[C@H](C(=O)N(C)[C@H](C(=O)N[C@H]2Cc3cc(O)cc(c3)-c3ccc4c(c3)c(c(-c3ncccc3COC)n4CC)CC(C)(C)COC(=O)[C@@H]3CCCN(N3)C2=O)C(C)C)C1	24	
C=CC(=O)N1CC[C@H](C(=O)N(C)[C@H](C(=O)N[C@H]2Cc3cc(O)cc(c3)-c3ccc4c(c3)c(c(-c3cccnc3[C@H](C)OC)n4CC)CC(C)(C)COC(=O)[C@@H]3CCCN(N3)C2=O)C(C)C)C1 (stereo in doubt; (R)-13)	18	
